Measured values as given in patent US20090069336A1, “PYRIMIDOTHIOPHENE COMPOUNDS” (VERNALIS (CAMBRIDGE) LIMITED., priority 2004, published 2009).

By UniProt entry, the sequences of proteins in these tests, tags left out.
UniProt P08238, whole entry: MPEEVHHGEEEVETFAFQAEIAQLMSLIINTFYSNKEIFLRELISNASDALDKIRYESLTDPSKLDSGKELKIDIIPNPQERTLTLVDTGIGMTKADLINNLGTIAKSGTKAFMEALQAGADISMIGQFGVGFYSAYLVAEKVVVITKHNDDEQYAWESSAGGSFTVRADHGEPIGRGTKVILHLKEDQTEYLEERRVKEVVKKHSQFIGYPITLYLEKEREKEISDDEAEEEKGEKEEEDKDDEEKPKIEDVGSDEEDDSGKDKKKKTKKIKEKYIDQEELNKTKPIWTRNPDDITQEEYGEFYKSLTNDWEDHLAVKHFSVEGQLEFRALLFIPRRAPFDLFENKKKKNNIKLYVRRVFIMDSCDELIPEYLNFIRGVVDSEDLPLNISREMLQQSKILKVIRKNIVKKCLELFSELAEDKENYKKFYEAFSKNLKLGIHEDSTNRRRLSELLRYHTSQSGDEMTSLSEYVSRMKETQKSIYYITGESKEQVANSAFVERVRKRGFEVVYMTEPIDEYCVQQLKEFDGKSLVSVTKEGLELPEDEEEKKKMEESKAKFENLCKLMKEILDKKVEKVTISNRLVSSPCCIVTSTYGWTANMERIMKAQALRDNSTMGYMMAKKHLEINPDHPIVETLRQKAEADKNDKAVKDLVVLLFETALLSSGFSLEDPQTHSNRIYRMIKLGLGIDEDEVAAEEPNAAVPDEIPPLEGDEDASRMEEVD

Biological target: human full-length HSP90 (Homo sapiens, UniProt P08238)
Experiment: Fluorescence polarization assay (competitive displacement of probe RBT0051001-FAM from HSP90)
Details: read-out: activity in the fluorescence polarization assay; activity range stated in each example
From the text: Fluorescence Polarization Assay
Fluorescence polarization {also known as fluorescence anisotropy} measures the rotation of a fluorescing species in solution, where the larger molecule the more polarized the fluorescence emission. When the fluorophore is excited with polarized light, the emitted light is also polarized. The molecular size is proportional to the polarization of the fluorescence emission.
The fluoroscein-labelled probe —RBT0051001-FAM—
binds to HSP90 {full-length human, full-length yeast or N-terminal domain HSP90} and the anisotropy {rotation of the probe:protein complex} is measured.
Test compound is added to the assay plate, left to equilibrate and the anisotropy measured again. Any change in anisotropy is due to competitive binding of compound to HSP90, thereby releasing probe. […]
• 3) Aliquot 100 μl assay mix to all other wells • 4) Seal plate and leave in dark at room temp for 20 minutes to equilibrate Compound Dilution Plate—1×3 dilution series • 1) In a clear 96-well v-bottom plate-{# VWR 007/008/257} add 10 μl 100% DMSO to wells B1 to H11 • 2) To wells A1 to A11 add 17.5 μl 100% DMSO • 3) Add 2.5 μl cpd to A1. […] Add 2 μl of 100 mM standard cpd to wells B12-H12 {is positive control} • 13) The Z′ factor is calculated from zero controls and positive wells. […]

Cc1sc(N)nc1-c1cc2c(-c3ccc(Cl)cc3Cl)nc(N)nc2s1
IC50: < 10 µM
